Test [1] in a line: qHTS assay to identify small molecule antagonists of the thyroid receptor (TR) signaling pathway - cell viability counter screen (AID 743064). Further: potency means the concentration at half of the fitted maximal effect; nearly all actives have a fitted effect of over 50% in size. The settings on record: GH3.TRE-Luc viability, CellTiter-Fluor, 24 h. In short, it runs like this: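 Fluorescence from CellTiter-Fluor, added after 23.5 h exposure at 37 °C, reported viability of GH3.TRE-Luc cells co-treated with compound and 1 nM T3. Measured in the same wells as the luciferase TR readout.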

The chains behind the UniProt entries cited, without tags or fusion partners.
UniProt Q92731, whole entry: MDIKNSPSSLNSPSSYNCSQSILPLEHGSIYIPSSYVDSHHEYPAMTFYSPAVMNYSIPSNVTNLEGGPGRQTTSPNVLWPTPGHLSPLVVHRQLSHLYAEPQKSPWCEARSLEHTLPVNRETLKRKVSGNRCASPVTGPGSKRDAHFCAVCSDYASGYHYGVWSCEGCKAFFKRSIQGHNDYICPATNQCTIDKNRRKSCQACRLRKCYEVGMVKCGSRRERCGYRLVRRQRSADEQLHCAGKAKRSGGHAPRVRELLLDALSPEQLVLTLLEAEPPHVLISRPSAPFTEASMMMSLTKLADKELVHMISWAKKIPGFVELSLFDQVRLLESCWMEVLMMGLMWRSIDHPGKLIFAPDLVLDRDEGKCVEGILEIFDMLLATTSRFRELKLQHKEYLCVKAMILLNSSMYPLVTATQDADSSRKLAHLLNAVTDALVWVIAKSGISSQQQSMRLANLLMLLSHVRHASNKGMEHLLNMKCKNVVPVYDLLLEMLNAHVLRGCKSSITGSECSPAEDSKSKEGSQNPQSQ

Test [2] is described as follows: qHTS assay to identify small molecule antagonists of the thyroid receptor (TR) signaling pathway (AID 743065). Further: potency means the concentration at half of the fitted maximal effect; nearly all actives have a fitted effect of over 55% in size. The settings on record: GH3.TRE-Luc, T3-stimulated luciferase inhibition, 23.5 h. The method in brief:
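GH3.TRE-Luc rat pituitary cells carrying two TR response elements driving luciferase were plated for 4 h, given compound plus 1 nM T3 (final), and incubated 23.5 h at 37 C. ONE-Glo luminescence measured reporter inhibition; CellTiter-Fluor fluorescence tracked cytotoxicity.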

Test [3] in a line: qHTS assay for small molecule agonists of the antioxidant response element (ARE) signaling pathway (AID 743202; active means well fitted activation curve with a large enough effect in the signal ratio in the repeat runs, not every such curve was filed as active; the % refers to the signal ratio; further: potency means the concentration at half of the fitted maximal effect). The settings on record: HepG2 ARE-bla reporter, beta-lactamase FRET, 16 h. In short, it runs like this:
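Compounds delivered in DMSO to ARE-bla HepG2 cells (2,000 cells/well, pre-incubated 5 h) and left 16 h at 37 C. LiveBLAzer B/G FRET substrate then added for 2 h at RT before fluorescence reading.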

The nature of test [4]: qHTS assay to identify small molecule antagonists of the estrogen related receptor (ERR) signaling pathway from Tox21 library (AID 1224848). Further: potency means the concentration at half of the fitted maximal effect; nearly all actives have a fitted effect of over 50% in size. The settings on record: ERR reporter cell line, luciferase antagonist mode, 18 h. The method in brief: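 Screening used an ERR reporter line supplied by NTP, exposed for 18 h at 37 C to library compounds delivered in DMSO. Signal was luciferase luminescence developed with ONE-Glo at room temperature for 30 min.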

Test [5] in a line: qHTS assay to identify small molecule antagonists of the androgen receptor (AR) signaling pathway using the MDA cell line in the presence of 0.5 nM R1881 - cell viability counter screen (AID 1259242). Further: on the % scale 0 is the no-effect control and ±100 the full control effect; nearly all actives have a fitted effect of over 45% in size. The settings on record: MDA-kb2 viability, CellTiter-Fluor protease fluorescence, 16 h; at 92.4 µM (top of the series). In short, it runs like this:
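MDA-kb2 cells (MMTV-luciferase, AR/GR responsive) were treated with compounds plus 0.5 nM R1881 (final) for 16 hr at 37C, 0% CO2. Viability was then read in the same wells as live-cell protease fluorescence (CellTiter-Fluor, 30 min).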

Test [6] is described as follows: qHTS assay to identify small molecule agonists of the sonic hedgehog signaling (Shh) pathway - cell viability counter screen (AID 1259366). Further: on the % scale 0 is the no-effect control and ±100 the full control effect; nearly all actives have a fitted effect of over 50% in size. The settings on record: NIH/3T3 Gli1-Luc viability, CellTiter-Fluor, 24 h; series mostly up to 92.4 µM. The method in brief: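 Cytotoxicity counter screen run in the same wells as the Shh reporter assay. NIH/3T3 cells carrying a Gli1 response element–driven luciferase were treated with DMSO-dissolved compounds for 24hr, and live-cell protease activity was measured with CellTiter-Fluor.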

Test [7] addresses Estrogen receptor beta (Homo sapiens) (UniProt Q92731). Kind of test: qHTS assay to identify small molecule antagonists of the estrogen receptor beta (ER-beta) signaling pathway (AID 1259378; active means well fitted inhibition curve with a large enough effect in the signal ratio in the repeat runs, not every such curve was filed as active; the % refers to the signal ratio; further: on the % scale 0 is the no-effect control and ±100 the full control effect). The settings on record: ER-beta-UAS-bla HEK293T, beta-lactamase FRET ratio, 16 h; at 92.4 µM (top of the series). The method in brief:
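ER-beta-UAS-bla HEK293T (GripTite) cells in 2% charcoal-stripped FBS medium were preincubated 6 hr at 37C, dosed with compound, then stimulated with 1 nM E2 (final) for 16 hr; beta-lactamase reporter read by B/G FRET fluorescence after 2 hr substrate loading.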

Test [8] in a line: Human pregnane X receptor (PXR) small molecule agonists, qHTS cell viability counter screen (AID 1346977). Further: potency means the concentration at half of the fitted maximal effect; nearly all actives have a fitted effect of over 50% in size. The settings on record: PXR-Luc HepG2 viability, CellTiter-Fluor, 24 h. In short, it runs like this: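 PXR-Luc HepG2, 2,000 cells/well, 5% charcoal-stripped FBS; 5hr settle; cpd 24hr, 37C/5% CO2; CellTiter-Fluor at 23hr, read 1hr later (fluorescence).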

The list shows a part of the results, in another mix than the full data. Results filed as inconclusive are left out. Calls of active or inactive are those of the source. Unless noted, the call rests on the fitted dose curve; in most records, active means well fitted curve in the direction sought with a large enough effect in the repeat runs; inconclusive means weak or mixed curves; inactive means no such curve, though single readings can be large; an effect the other way counts as inactive or inconclusive.

Consider `CCC(=O)N(c1ccccc1)C1(COC)CCN(CCc2cccs2)CC1`, for which the Potency in test [1] is active: 54.4 µM; in test [2], active: 54.4 µM; in test [3], active: 27.3 µM; in test [4], active: 48.5 µM; in test [8], active: 61.1 µM. Further, the viability change, negative = cytotoxic in test [5] was inactive: -15.6%. In addition, the Potency entry in test [6] is “inactive”. Further, the activity, negative = inhibition in test [7] was inactive: -17.8%.

Source of the values: PubChem BioAssay (Tox21).
